From patent US8959984B2, “Proteome-wide quantification of small molecule binding to cellular target proteins” (priority 2007, dated 2015)

Protein sequences, listed by entry. Tags and fused reporters are not part of them. Lines headed by an entry give the natural chain unless they say otherwise; changes in a name come on top.
UniProt P53667: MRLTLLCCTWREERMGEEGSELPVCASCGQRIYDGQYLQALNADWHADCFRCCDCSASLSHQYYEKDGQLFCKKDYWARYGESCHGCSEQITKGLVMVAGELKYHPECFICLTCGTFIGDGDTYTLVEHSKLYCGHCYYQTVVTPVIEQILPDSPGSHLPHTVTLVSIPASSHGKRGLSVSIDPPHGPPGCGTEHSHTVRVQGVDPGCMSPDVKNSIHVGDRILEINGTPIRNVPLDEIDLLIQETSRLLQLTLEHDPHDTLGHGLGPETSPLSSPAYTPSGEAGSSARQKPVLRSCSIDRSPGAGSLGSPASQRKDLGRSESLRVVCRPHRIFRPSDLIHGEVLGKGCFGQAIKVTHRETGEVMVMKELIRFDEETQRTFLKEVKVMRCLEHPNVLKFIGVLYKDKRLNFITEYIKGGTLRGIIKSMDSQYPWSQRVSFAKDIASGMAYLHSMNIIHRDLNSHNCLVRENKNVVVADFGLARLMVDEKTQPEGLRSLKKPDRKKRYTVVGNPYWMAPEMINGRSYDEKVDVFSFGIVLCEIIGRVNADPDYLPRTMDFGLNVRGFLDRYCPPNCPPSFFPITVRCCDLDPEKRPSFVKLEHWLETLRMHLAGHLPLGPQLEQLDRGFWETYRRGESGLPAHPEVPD
UniProt Q9NSY1, whole entry: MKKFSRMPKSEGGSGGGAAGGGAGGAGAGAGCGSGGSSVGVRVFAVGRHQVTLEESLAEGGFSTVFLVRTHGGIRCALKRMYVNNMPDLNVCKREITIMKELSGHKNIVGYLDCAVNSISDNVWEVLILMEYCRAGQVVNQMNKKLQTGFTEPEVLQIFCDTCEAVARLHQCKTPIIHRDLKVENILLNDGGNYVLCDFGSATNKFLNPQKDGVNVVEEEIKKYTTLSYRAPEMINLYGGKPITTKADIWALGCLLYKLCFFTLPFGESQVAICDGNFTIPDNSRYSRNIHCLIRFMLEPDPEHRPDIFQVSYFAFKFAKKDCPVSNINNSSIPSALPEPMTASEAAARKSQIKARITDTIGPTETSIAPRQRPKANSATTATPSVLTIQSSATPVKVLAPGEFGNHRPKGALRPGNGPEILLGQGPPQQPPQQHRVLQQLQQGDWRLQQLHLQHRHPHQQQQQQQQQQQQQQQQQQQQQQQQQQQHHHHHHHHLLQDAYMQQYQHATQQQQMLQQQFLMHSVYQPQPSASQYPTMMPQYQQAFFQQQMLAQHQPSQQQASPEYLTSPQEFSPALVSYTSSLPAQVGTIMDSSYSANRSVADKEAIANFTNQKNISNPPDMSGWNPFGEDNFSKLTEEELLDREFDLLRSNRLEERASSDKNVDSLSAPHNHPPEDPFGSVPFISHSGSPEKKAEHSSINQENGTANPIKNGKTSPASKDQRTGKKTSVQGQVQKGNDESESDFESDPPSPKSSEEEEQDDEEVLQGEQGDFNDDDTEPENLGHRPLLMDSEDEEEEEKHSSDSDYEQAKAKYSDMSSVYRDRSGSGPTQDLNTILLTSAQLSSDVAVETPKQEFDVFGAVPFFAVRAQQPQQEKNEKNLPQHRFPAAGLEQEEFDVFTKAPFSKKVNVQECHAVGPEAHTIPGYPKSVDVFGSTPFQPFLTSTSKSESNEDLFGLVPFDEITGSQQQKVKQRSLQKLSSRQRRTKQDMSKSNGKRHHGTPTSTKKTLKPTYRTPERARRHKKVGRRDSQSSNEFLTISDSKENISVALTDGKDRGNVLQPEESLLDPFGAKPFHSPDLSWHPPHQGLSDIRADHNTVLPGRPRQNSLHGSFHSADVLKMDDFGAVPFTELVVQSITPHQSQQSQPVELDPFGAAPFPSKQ
UniProt P35270: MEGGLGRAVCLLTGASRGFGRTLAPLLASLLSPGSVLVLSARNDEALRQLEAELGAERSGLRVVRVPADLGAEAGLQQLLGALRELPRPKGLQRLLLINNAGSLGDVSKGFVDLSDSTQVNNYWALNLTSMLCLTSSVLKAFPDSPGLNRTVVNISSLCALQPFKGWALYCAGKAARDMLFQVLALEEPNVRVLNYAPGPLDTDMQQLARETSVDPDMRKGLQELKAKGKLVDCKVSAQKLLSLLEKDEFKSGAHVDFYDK
UniProt P48729: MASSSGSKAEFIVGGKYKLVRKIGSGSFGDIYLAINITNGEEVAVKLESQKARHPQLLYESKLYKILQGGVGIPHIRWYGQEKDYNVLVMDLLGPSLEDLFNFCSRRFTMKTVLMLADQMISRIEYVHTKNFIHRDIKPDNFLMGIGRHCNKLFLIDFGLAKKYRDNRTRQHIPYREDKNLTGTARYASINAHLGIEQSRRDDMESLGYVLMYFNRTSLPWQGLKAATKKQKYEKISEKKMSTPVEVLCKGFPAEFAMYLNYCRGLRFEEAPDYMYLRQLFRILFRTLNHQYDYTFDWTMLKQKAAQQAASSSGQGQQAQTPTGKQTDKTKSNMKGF
UniProt Q15059, whole entry: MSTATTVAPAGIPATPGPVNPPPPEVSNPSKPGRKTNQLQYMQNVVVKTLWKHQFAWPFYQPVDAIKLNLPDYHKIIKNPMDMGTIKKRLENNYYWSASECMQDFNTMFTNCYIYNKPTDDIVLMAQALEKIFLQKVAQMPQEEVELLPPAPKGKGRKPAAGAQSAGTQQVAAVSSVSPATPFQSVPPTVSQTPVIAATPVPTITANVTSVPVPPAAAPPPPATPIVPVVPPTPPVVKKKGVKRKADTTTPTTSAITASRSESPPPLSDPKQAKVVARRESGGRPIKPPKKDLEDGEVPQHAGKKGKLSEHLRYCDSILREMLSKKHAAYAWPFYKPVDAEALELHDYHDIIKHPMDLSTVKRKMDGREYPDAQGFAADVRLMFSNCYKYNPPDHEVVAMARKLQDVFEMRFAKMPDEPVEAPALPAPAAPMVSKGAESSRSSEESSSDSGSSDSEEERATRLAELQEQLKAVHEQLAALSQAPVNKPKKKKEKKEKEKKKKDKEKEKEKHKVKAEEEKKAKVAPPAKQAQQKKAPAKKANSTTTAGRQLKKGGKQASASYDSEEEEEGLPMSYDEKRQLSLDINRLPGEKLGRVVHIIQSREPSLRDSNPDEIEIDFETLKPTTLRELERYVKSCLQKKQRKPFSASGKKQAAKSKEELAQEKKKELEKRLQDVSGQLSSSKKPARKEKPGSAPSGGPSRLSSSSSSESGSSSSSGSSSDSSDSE
UniProt Q9P289: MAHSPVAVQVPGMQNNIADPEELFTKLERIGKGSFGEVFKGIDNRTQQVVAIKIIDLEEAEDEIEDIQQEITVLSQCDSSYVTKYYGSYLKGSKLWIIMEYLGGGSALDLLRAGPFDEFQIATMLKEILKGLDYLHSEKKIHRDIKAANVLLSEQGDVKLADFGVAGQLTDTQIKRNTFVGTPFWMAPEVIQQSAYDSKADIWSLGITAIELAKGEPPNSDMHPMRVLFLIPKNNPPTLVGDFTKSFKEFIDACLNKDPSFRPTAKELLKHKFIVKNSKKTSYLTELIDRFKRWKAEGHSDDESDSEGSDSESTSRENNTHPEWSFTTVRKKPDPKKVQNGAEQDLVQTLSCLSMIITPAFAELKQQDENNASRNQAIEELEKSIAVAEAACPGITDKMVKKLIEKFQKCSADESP
UniProt Q13555: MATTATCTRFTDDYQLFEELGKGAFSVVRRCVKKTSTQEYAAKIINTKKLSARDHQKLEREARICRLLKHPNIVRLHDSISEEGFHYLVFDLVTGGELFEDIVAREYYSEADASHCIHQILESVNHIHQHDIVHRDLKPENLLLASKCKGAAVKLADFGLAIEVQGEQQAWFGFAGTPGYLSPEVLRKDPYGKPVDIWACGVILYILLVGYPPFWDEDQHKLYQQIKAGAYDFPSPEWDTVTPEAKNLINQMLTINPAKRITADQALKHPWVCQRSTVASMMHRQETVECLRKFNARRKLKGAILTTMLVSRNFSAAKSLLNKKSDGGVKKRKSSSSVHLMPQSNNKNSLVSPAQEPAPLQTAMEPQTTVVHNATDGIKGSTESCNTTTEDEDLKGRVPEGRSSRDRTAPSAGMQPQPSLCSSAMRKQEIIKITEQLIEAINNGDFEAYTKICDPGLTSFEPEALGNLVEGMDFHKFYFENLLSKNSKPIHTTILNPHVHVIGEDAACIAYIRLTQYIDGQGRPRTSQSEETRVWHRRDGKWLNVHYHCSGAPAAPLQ
UniProt P51617, whole entry: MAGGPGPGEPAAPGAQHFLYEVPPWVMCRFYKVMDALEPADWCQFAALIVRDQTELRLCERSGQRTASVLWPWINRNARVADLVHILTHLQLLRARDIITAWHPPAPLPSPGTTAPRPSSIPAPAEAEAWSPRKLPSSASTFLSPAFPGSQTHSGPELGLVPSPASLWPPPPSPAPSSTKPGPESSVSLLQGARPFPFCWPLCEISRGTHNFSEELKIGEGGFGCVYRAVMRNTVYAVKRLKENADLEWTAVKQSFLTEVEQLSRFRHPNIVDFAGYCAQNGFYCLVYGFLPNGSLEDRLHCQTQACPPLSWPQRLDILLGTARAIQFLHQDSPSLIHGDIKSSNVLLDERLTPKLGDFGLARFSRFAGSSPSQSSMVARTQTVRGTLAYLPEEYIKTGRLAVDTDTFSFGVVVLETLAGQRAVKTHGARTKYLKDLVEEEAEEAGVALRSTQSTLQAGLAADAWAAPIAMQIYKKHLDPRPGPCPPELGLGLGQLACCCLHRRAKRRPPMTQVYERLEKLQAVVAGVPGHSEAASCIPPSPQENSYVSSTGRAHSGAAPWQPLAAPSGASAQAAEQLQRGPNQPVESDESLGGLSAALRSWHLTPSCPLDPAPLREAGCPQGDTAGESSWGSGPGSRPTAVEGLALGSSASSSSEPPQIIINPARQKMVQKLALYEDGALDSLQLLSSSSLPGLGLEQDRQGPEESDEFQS

Legend:
Assay in all cases: Ki determination for immobilized VI16742: two consecutive incubations, control beads, ligand concentration and incubation time controls (Tables 7, 8)
Assay type in all cases: binding
[1] = target: cellular target proteins in HeLa cell lysate (Homo sapiens, UniProt P53667); details: Ki (VI16742), LIMK1 IPI00291702
[2] = target: cellular target proteins in HeLa cell lysate (Homo sapiens, UniProt Q9NSY1); details: Ki (VI16742), BIKE (BMP2K) IPI00337426
[3] = target: cellular target proteins in HeLa cell lysate (Homo sapiens, UniProt P35270); details: Ki (VI16742), SPR IPI00017469
[4] = target: T1, cellular target proteins in HeLa cell lysate (Homo sapiens, UniProt P16083); details: Ki (VI16742), NQO2 IPI00219129
T1 sequence (P16083 1-231): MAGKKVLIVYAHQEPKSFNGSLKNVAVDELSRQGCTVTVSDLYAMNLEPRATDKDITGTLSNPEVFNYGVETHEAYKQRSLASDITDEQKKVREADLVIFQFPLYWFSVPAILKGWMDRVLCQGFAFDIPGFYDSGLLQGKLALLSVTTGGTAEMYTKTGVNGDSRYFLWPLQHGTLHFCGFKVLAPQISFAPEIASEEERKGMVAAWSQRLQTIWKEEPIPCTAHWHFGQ

[5] = target: cellular target proteins in HeLa cell lysate (Homo sapiens, UniProt P48729); details: Ki (VI16742), CSNK1A1 IPI00790374
[6] = target: cellular target proteins in HeLa cell lysate (Homo sapiens, UniProt Q15059); details: Ki (VI16742), BRD3 IPI00014266
[7] = target: cellular target proteins in HeLa cell lysate (Homo sapiens, UniProt O60885); details: Ki (VI16742), BRD4 IPI00440727
[8] = target: cellular target proteins in HeLa cell lysate (Homo sapiens, UniProt Q9P289); details: Ki (VI16742), MST4 IPI00292827
[9] = target: T2, cellular target proteins in HeLa cell lysate (Homo sapiens, UniProt Q9NPF4); details: Ki (VI16742), OSGEP IPI00015809
T2 sequence (Q9NPF4 1-335): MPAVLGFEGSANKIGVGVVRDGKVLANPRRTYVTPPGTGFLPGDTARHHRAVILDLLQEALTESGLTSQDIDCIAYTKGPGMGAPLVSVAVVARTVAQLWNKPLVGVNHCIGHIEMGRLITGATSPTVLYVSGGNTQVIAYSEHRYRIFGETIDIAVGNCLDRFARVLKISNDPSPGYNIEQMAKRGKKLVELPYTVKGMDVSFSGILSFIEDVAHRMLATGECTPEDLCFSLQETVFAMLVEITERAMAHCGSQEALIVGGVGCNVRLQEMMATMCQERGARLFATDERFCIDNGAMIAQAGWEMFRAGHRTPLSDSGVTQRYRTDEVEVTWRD

[10] = target: cellular target proteins in HeLa cell lysate (Homo sapiens, UniProt Q13555); details: Ki (VI16742), CaMK2g (CAMK2G) IPI00172450
[11] = target: cellular target proteins in HeLa cell lysate (Homo sapiens, UniProt P51617); details: Ki (VI16742), IRAK1 IPI00293652

SMILES: CC(C)n1c(=O)ccc2cnc(Nc3ccc(OCCN)cc3)nc21 [V16742]
- Ki [1]: 11 µM
- Ki [2]: 9.92 µM
- Ki [3]: 70.8 µM
- Ki [4]: 4.13 µM
- Ki [5]: 19.5 µM
- Ki [6]: 29.4 µM
- Ki [7]: 44.5 µM
- Ki [8]: 73.3 µM
- Ki [9]: 14 µM
- Ki [10]: 1.6 µM
- Ki [11]: 10.9 µM
